# Data published in patent US9046519.
# Like-named read-outs stand apart in the source and are kept apart here.
# Experiments:
# [1] = target: human thyrotropin receptor (TSHR), wild type, full length (human) (UniProt P16473); test: Scatchard, 125I-ligand, solubilised TSHR on tubes
# [2] = target: human thyrotropin receptor (TSHR), wild type, full length (human) (UniProt P16473); test: Scatchard, 125I-ligand, solubilised TSHR on tubes; remark: listed apart in the source
substance,measurement,setting,value
"porcine TSH (RSR Ltd, 70 units per mg) (from UniProt P01219 25-120; P01224 21-132) (ligand; other documents disagree on this pair)",Ka,[1],6e+09 M⁻¹
same,Ka,[2],4.2e+09 M⁻¹
